{
  "source": "patent US6660768B2",
  "about": "“Parasiticidal compositions and methods of use” (Schering-Plough Animal Health Corporation, priority 2001, dated 2003)",
  "assay": "Example 3B: solubility of permethrin in PM (propylene glycol monomethyl ether), DM (diethylene glycol monomethyl ether) and PM or DPM (dipropylene glycol monomethyl ether)/d-limonene mixtures at low temperatures, seeded",
  "conditions": "for Crystals / trans/cis isomer ratio: DM",
  "method": "These solutions were poured into 100 mL tubes with screw top caps. These tubes were placed in the cold water bath and allowed to come to equilibrium at the temperature of the bath. […] The seeded preparations were then thoroughly shaken, replaced in the bath and allowed to remain in the bath for a 24 hour period. The preparations were then examined for crystallization, then again thoroughly agitated and replaced in the bath for an additional time period. Samples of the supernatant were removed after additional crystallization had occurred.\nThe solvent mixtures tested were: dipropylene glycol monomethyl ether/d-limonene and propylene glycol monomethyl ether/d-limonene.\nThese solvent mixtures were evaluated at ratios of 2:1, 1:1, 1:2, and then at 8:2 and 9:1 (the first number refers to one of the glycol ethers, the second number refers to d-limonene).",
  "key": {"[1]": {"conditions": "5° C., Original % permethrin 50"}, "[2]": {"conditions": "5° C., Original % permethrin 55"}, "[3]": {"conditions": "5° C., Original % permethrin 60"}},
  "data": [
    {"smiles": "CC1(C)C(C=C(Cl)Cl)C1C(=O)OCc1cccc(Oc2ccccc2)c1", "note": "(stereo not drawn) [permethrin]", "values": [
      {"measurement": "Isomer Ratio Trans/Cis", "setting": "65% permethrin in DPM/d-limonene, 0% d-limonene of solvent mixture, 0° C.", "result": 2.90},
      {"measurement": "Isomer Ratio Trans/Cis", "setting": "65% permethrin in DPM/d-limonene, 0% d-limonene of solvent mixture, 5° C.", "result": 2.43},
      {"measurement": "Isomer Ratio Trans/Cis", "setting": "65% permethrin in DPM/d-limonene, 0% d-limonene of solvent mixture, 10° C.", "result": 1.91},
      {"measurement": "Isomer Ratio Trans/Cis", "setting": "65% permethrin in DPM/d-limonene, 10% d-limonene of solvent mixture, 10° C.", "result": 2.02},
      {"measurement": "Isomer Ratio Trans/Cis", "setting": "65% permethrin in DPM/d-limonene, 20% d-limonene of solvent mixture, 10° C.", "result": 1.75},
      {"measurement": "Isomer Ratio Trans/Cis", "setting": "65% permethrin in DPM/d-limonene, 33% d-limonene of solvent mixture, 0° C.", "result": 2.22},
      {"measurement": "Isomer Ratio Trans/Cis", "setting": "65% permethrin in DPM/d-limonene, 33% d-limonene of solvent mixture, 5° C.", "result": 1.61},
      {"measurement": "Isomer Ratio Trans/Cis", "setting": "65% permethrin in DPM/d-limonene, 33% d-limonene of solvent mixture, 10° C.", "result": 1.78},
      {"measurement": "Isomer Ratio Trans/Cis", "setting": "65% permethrin in DPM/d-limonene, 50% d-limonene of solvent mixture, 0° C.", "result": 2.26},
      {"measurement": "Isomer Ratio Trans/Cis", "setting": "65% permethrin in DPM/d-limonene, 50% d-limonene of solvent mixture, 5° C.", "result": 1.55},
      {"measurement": "Isomer Ratio Trans/Cis", "setting": "65% permethrin in DPM/d-limonene, 50% d-limonene of solvent mixture, 10° C.", "result": 1.60},
      {"measurement": "Isomer Ratio Trans/Cis", "setting": "65% permethrin in DPM/d-limonene, 67% d-limonene of solvent mixture, 0° C.", "result": 2.11},
      {"measurement": "Isomer Ratio Trans/Cis", "setting": "65% permethrin in DPM/d-limonene, 67% d-limonene of solvent mixture, 5° C.", "result": 1.42},
      {"measurement": "Isomer Ratio Trans/Cis", "setting": "65% permethrin in DPM/d-limonene, 67% d-limonene of solvent mixture, 10° C.", "result": 1.55},
      {"measurement": "Isomer Ratio Trans/Cis", "setting": "65% permethrin in DPM/d-limonene, 100% d-limonene of solvent mixture, 0° C.", "result": 2.46},
      {"measurement": "Isomer Ratio Trans/Cis", "setting": "65% permethrin in DPM/d-limonene, 100% d-limonene of solvent mixture, 5° C.", "result": 1.71},
      {"measurement": "Isomer Ratio Trans/Cis", "setting": "65% permethrin in DPM/d-limonene, 100% d-limonene of solvent mixture, 10° C.", "result": 1.39},
      {"measurement": "Isomer Ratio Trans/Cis", "setting": "65% permethrin in PM/d-limonene, 0% d-limonene of solvent mixture, 0° C.", "result": 2.85},
      {"measurement": "Isomer Ratio Trans/Cis", "setting": "65% permethrin in PM/d-limonene, 0% d-limonene of solvent mixture, 5° C.", "result": 2.66},
      {"measurement": "Isomer Ratio Trans/Cis", "setting": "65% permethrin in PM/d-limonene, 10% d-limonene of solvent mixture, 10° C.", "result": 1.87},
      {"measurement": "Isomer Ratio Trans/Cis", "setting": "65% permethrin in PM/d-limonene, 20% d-limonene of solvent mixture, 10° C.", "result": 1.54},
      {"measurement": "Isomer Ratio Trans/Cis", "setting": "65% permethrin in PM/d-limonene, 33% d-limonene of solvent mixture, 0° C.", "result": 2.60},
      {"measurement": "Isomer Ratio Trans/Cis", "setting": "65% permethrin in PM/d-limonene, 33% d-limonene of solvent mixture, 5° C.", "result": 1.8},
      {"measurement": "Isomer Ratio Trans/Cis", "setting": "65% permethrin in PM/d-limonene, 33% d-limonene of solvent mixture, 10° C.", "result": 1.70},
      {"measurement": "Isomer Ratio Trans/Cis", "setting": "65% permethrin in PM/d-limonene, 50% d-limonene of solvent mixture, 0° C.", "result": 2.13},
      {"measurement": "Isomer Ratio Trans/Cis", "setting": "65% permethrin in PM/d-limonene, 50% d-limonene of solvent mixture, 5° C.", "result": 1.65},
      {"measurement": "Isomer Ratio Trans/Cis", "setting": "65% permethrin in PM/d-limonene, 50% d-limonene of solvent mixture, 10° C.", "result": 1.53},
      {"measurement": "Isomer Ratio Trans/Cis", "setting": "65% permethrin in PM/d-limonene, 67% d-limonene of solvent mixture, 0° C.", "result": 2.25},
      {"measurement": "Isomer Ratio Trans/Cis", "setting": "65% permethrin in PM/d-limonene, 67% d-limonene of solvent mixture, 5° C.", "result": 1.48},
      {"measurement": "Isomer Ratio Trans/Cis", "setting": "65% permethrin in PM/d-limonene, 67% d-limonene of solvent mixture, 10° C.", "result": 1.37},
      {"measurement": "Isomer Ratio Trans/Cis", "setting": "65% permethrin in PM/d-limonene, 100% d-limonene of solvent mixture, 0° C.", "result": 2.46},
      {"measurement": "Isomer Ratio Trans/Cis", "setting": "65% permethrin in PM/d-limonene, 100% d-limonene of solvent mixture, 5° C.", "result": 1.71},
      {"measurement": "Isomer Ratio Trans/Cis", "setting": "65% permethrin in PM/d-limonene, 100% d-limonene of solvent mixture, 10° C.", "result": 1.39},
      {"measurement": "Isomer Ratio Trans/Cis", "setting": "70% permethrin in DPM/d-limonene, 0% d-limonene of solvent mixture, 0° C.", "result": 3.09},
      {"measurement": "Isomer Ratio Trans/Cis", "setting": "70% permethrin in DPM/d-limonene, 0% d-limonene of solvent mixture, 5° C.", "result": 2.64},
      {"measurement": "Isomer Ratio Trans/Cis", "setting": "70% permethrin in DPM/d-limonene, 0% d-limonene of solvent mixture, 10° C.", "result": 2.32},
      {"measurement": "Isomer Ratio Trans/Cis", "setting": "70% permethrin in DPM/d-limonene, 10% d-limonene of solvent mixture, 10° C.", "result": 2.21},
      {"measurement": "Isomer Ratio Trans/Cis", "setting": "70% permethrin in DPM/d-limonene, 20% d-limonene of solvent mixture, 10° C.", "result": 2.08},
      {"measurement": "Isomer Ratio Trans/Cis", "setting": "70% permethrin in DPM/d-limonene, 33% d-limonene of solvent mixture, 5° C.", "result": 1.77},
      {"measurement": "Isomer Ratio Trans/Cis", "setting": "70% permethrin in DPM/d-limonene, 33% d-limonene of solvent mixture, 10° C.", "result": 2.05},
      {"measurement": "Isomer Ratio Trans/Cis", "setting": "70% permethrin in DPM/d-limonene, 50% d-limonene of solvent mixture, 0° C.", "result": 2.42},
      {"measurement": "Isomer Ratio Trans/Cis", "setting": "70% permethrin in DPM/d-limonene, 50% d-limonene of solvent mixture, 5° C.", "result": 1.72},
      {"measurement": "Isomer Ratio Trans/Cis", "setting": "70% permethrin in DPM/d-limonene, 50% d-limonene of solvent mixture, 10° C.", "result": 2.00},
      {"measurement": "Isomer Ratio Trans/Cis", "setting": "70% permethrin in DPM/d-limonene, 67% d-limonene of solvent mixture, 0° C.", "result": 2.34},
      {"measurement": "Isomer Ratio Trans/Cis", "setting": "70% permethrin in DPM/d-limonene, 67% d-limonene of solvent mixture, 5° C.", "result": 1.65},
      {"measurement": "Isomer Ratio Trans/Cis", "setting": "70% permethrin in DPM/d-limonene, 67% d-limonene of solvent mixture, 10° C.", "result": 1.91},
      {"measurement": "Isomer Ratio Trans/Cis", "setting": "70% permethrin in DPM/d-limonene, 100% d-limonene of solvent mixture, 0° C.", "result": 2.74},
      {"measurement": "Isomer Ratio Trans/Cis", "setting": "70% permethrin in DPM/d-limonene, 100% d-limonene of solvent mixture, 5° C.", "result": 2.29},
      {"measurement": "Isomer Ratio Trans/Cis", "setting": "70% permethrin in DPM/d-limonene, 100% d-limonene of solvent mixture, 10° C.", "result": 1.46},
      {"measurement": "Isomer Ratio Trans/Cis", "setting": "70% permethrin in PM/d-limonene, 0% d-limonene of solvent mixture, 0° C.", "result": 2.49},
      {"measurement": "Isomer Ratio Trans/Cis", "setting": "70% permethrin in PM/d-limonene, 0% d-limonene of solvent mixture, 5° C.", "result": 2.64},
      {"measurement": "Isomer Ratio Trans/Cis", "setting": "70% permethrin in PM/d-limonene, 10% d-limonene of solvent mixture, 10° C.", "result": 2.17},
      {"measurement": "Isomer Ratio Trans/Cis", "setting": "70% permethrin in PM/d-limonene, 20% d-limonene of solvent mixture, 10° C.", "result": 1.94},
      {"measurement": "Isomer Ratio Trans/Cis", "setting": "70% permethrin in PM/d-limonene, 33% d-limonene of solvent mixture, 0° C.", "result": 2.80},
      {"measurement": "Isomer Ratio Trans/Cis", "setting": "70% permethrin in PM/d-limonene, 33% d-limonene of solvent mixture, 5° C.", "result": 1.94},
      {"measurement": "Isomer Ratio Trans/Cis", "setting": "70% permethrin in PM/d-limonene, 33% d-limonene of solvent mixture, 10° C.", "result": 1.98},
      {"measurement": "Isomer Ratio Trans/Cis", "setting": "70% permethrin in PM/d-limonene, 50% d-limonene of solvent mixture, 0° C.", "result": 2.53},
      {"measurement": "Isomer Ratio Trans/Cis", "setting": "70% permethrin in PM/d-limonene, 50% d-limonene of solvent mixture, 5° C.", "result": 1.70},
      {"measurement": "Isomer Ratio Trans/Cis", "setting": "70% permethrin in PM/d-limonene, 50% d-limonene of solvent mixture, 10° C.", "result": 1.87},
      {"measurement": "Isomer Ratio Trans/Cis", "setting": "70% permethrin in PM/d-limonene, 67% d-limonene of solvent mixture, 0° C.", "result": 2.50},
      {"measurement": "Isomer Ratio Trans/Cis", "setting": "70% permethrin in PM/d-limonene, 67% d-limonene of solvent mixture, 5° C.", "result": 1.69},
      {"measurement": "Isomer Ratio Trans/Cis", "setting": "70% permethrin in PM/d-limonene, 67% d-limonene of solvent mixture, 10° C.", "result": 1.74},
      {"measurement": "Isomer Ratio Trans/Cis", "setting": "70% permethrin in PM/d-limonene, 100% d-limonene of solvent mixture, 0° C.", "result": 2.74},
      {"measurement": "Isomer Ratio Trans/Cis", "setting": "70% permethrin in PM/d-limonene, 100% d-limonene of solvent mixture, 5° C.", "result": 2.29},
      {"measurement": "Isomer Ratio Trans/Cis", "setting": "70% permethrin in PM/d-limonene, 100% d-limonene of solvent mixture, 10° C.", "result": 1.46},
      {"measurement": "Crystals", "setting": "[1]", "result": "1/4"},
      {"measurement": "trans/cis isomer ratio", "setting": "[1]", "result": 1.90},
      {"measurement": "Crystals", "setting": "[2]", "result": "1/2"},
      {"measurement": "trans/cis isomer ratio", "setting": "[2]", "result": 1.82},
      {"measurement": "Crystals", "setting": "[3]", "result": ">90", "unit": "%"},
      {"measurement": "trans/cis isomer ratio", "setting": "[3]", "result": 2.24},
      {"measurement": "Crystals", "setting": "5° C., Original % permethrin 65", "result": ">90", "unit": "%"}
    ]}
  ]
}
